Values quoted from earlier work, collected in PubChem BioAssay AID977608.
What follows is the remainder of the data, with few or none of the hits. Active and inactive are the calls of the source. The limit is not given here; nearly all actives have IC50 up to about 1400 µM.

assay: literature IC50 values for PDB complexes, PDB-derived complexes (AID 977608); settings: PDB protein-ligand complexes; protein: E3 ubiquitin-protein ligase XIAP, PDB entry 4kju unless noted

| Compound | IC50 |
| --- | --- |
| CC1=C(C(=O)Nc2ccc3[nH]ncc3c2)[C@H](c2ccc(F)cc2)NC(=O)N1 | active: 250 nM [protein: Beta-adrenergic receptor kinase 1 GRK2, PDB entry 4pnk] |
| CN[C@@H](C)C(=O)N[C@H]1CN(C(=O)c2ccc(N)cc2)c2ccccc2N(Cc2c(OC)ccc3ccccc23)C1=O | active: 6 nM |
